Source: PubChem BioAssay (National Center for Advancing Translational Sciences (NCATS))
Sfp inh: qHTS Assay for Inhibitors of Bacillus subtilis Sfp phosphopantetheinyl transferase (PPTase). 310,000 compounds, 3.5% hits. 4'-phosphopantetheinyl transferase ffp (Bacillus subtilis), Q9F4F7. Biochemical Sfp PPTase activity, qHTS. Potency, µM, inactives show max response, negative = inhibition, usual class: inhibitors; active = well fitted inhibition curve with a large enough effect; inconclusive = small, poorly fitted or top-dose-only effect, or another doubt; inactive = no such curve, though single readings can be large or run the other way;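 note: the enzyme is Sfp with the accession as filed and its product quenches rhodamine fluorescence; potency is the fitted concentration of half-maximal effect; 0% = enzyme reaction without inhibitor and -100% = no enzyme wells; top concentration of the series not given in the record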
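Sfp 15 nM + cpd, 15 min RT; start w/ rhodamine-CoA 5 uM, BHQ-2-YbbR 12.5 uM (final); 50 mM Hepes pH 7.6, 10 mM MgCl2, 0.01% NP-40, 0.01% BSA; read 525/598 nm at 0 and 30 min.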
miR-21 reporter: miR-21 reporter, rising signal; HeLa miR-21 FLuc reporter, luciferase, 48 h; Potency, µM (doses to about 38.3 µM), for inactives: at the highest dose reporter change, positive = more light; 340,000 tested, under 10 active; AID 2288; active = well fitted rising curve with a large enough effect; inconclusive = small, poorly fitted or top-dose-only effect; inactive = no such curve, though single readings can be large or run the other way;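 further: % of control where 0% means no effect; miR-21 action dims this reporter so a rising signal means less miR-21 action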
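HeLa cells endogenously expressing miR-21, stably carrying CMV-driven firefly luciferase with a downstream miR-21 binding site, 2000 cells/well. Titrations up to approximately 40 uM, 48 hours; luciferase luminescence read.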
LMNA splice mod: modulators of lamin A splicing. HeLa LMNA splicing GFP/RFP minigene ratio, 48 h. Potency, µM (series often up to 46.1 µM), without a hit: top-dose ratio change, negative = inhibition, hits mostly inhibitors. AID 1487. 0.01% of 200,000 active; active = well fitted inhibition curve with a large enough effect in the signal ratio, with a control signal flat, not every such curve was filed as active; inconclusive = small, poorly fitted or top-dose-only effect, or effect the other way, or a change in a side signal; the % refers to the signal ratio; also: potency is read from the fitted curve at half-maximal effect; % is scaled to controls: 0 for no effect and ±100 for the full control effect
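Read-out is the ratio of GFP to DsRed2 object intensity, acquired by 488 nm laser-scanning cytometry on HeLa lamin A-EGFP minigene reporter cells. Compound incubation 48 hrs at 37 °C in Opti-MEM with 2% FBS; DMSO 0.5% final.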
ALDH1A1 block: blocks purified human ALDH1A1 activity | P00352 | Purified ALDH1A1, NADH fluorescence, propionaldehyde substrate | Potency, µM (series often up to 75.3 µM), for the others: at the top dose activity, negative = inhibition, most hits filed as inhibitors | 7.3% of 220,000 active; active = well fitted inhibition curve with a large enough effect, not every such curve was filed as active; inconclusive = small, poorly fitted or top-dose-only effect, or another doubt; inactive = no such curve, though single readings can be large or run the other way;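 also: potency is read from the fitted curve at half-maximal effect; plate controls were no enzyme wells and a reference inhibitor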
G9a inh: blocks human histone lysine methyltransferase G9a. Q96KQ7. G9a H3K9 monomethylation, AlphaScreen, 2 h. Potency, µM (highest dose often 102 µM), for inactives: top-dose activity, negative = inhibition, usual class: inhibitors. 8.8% of 350,000 active. AID 504332; also: potency is read from the fitted curve at half-maximal effect; % is scaled to controls: 0 for no effect and ±100 for the full control effect; nearly all actives have a fitted effect of over 75% in size
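G9a (20 nM) was preincubated 15 min with compound, then reacted 2 h at room temperature with 500 nM biotin-H3K9 peptide and 20 µM SAM. Monomethyl-H3K9 detected by AlphaScreen using anti-H3K9me1 antibody.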
KDM4E inh: blocks human JMJD2E demethylase activity; B2RXH2; JMJD2E catalytic domain, FDH-coupled NADH fluorescence (FDH is formaldehyde dehydrogenase); Potency, µM (highest dose often 57.1 µM), for inactives: top-dose activity change, negative = inhibition, most hits filed as inhibitors; 1.6% of 230,000 active; AID 2147; active = well fitted inhibition curve with a large enough effect, not every such curve was filed as active; inconclusive = small, poorly fitted or top-dose-only effect, or another doubt; inactive = no such curve, though single readings can be large or run the other way;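 also: potency is read from the fitted curve at half-maximal effect; 0% = wells with enzyme and -100% = buffer wells without enzyme; nearly all actives have a fitted effect of over 50% in size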
Starred values were filed as active, the others as inactive; ? = inconclusive; / = no result given; [ ] = dose if it differs, or a comment. This is a sample that favours compounds with a hit; in the whole collection about 13% have one here. Unless noted, calls follow the shape of the dose curve; as a rule, active = well fitted curve in the direction sought with a large enough effect; inconclusive = small, poorly fitted or top-dose-only effect, or another doubt; inactive = no such curve, though single readings can be large; an effect the other way counts as inactive or inconclusive.

1	CCN1C(=O)C(O)(C2COC(C)(C)CC2=O)c2ccccc21 (stereo not drawn)
2	CCN1C(=O)C(O)(c2c[nH]c3ccccc23)c2cc(Br)ccc21 (stereo not drawn)
3	CN(C)c1ccc(CNC(=O)c2sc3ncccc3c2-n2cccc2)cc1
4	CC(C)Oc1ccc(CNC(=O)c2sc3ncccc3c2-n2cccc2)cc1
5	Cc1ccc(SCc2nc3ncccn3c2Br)cc1

Assay by compound | 1 | 2 | 3 | 4 | 5
miR-21 reporter | 0% | 15% | -1% | 2% | -42%
ALDH1A1 block | ? | / | / | / | /
LMNA splice mod | -7% | / | 3%[46 µM] | ? | /
KDM4E inh | 0% | / | / | / | 5%
Sfp inh | 11% | / | / | / | -9%
G9a inh | 39% | 1%[59 µM] | 22µM* | -3%[59 µM] | 0%[12.7 µM]

6	Nn1c(SCc2nc3ccccn3c2Br)nnc1-c1cccnc1
7	CCSCc1nc2ccccn2c1Br
8	CCCCSCc1nc2ccccn2c1Br
9	COc1ccc(NC(=O)CSc2nc(N)c(C(=O)Nc3ccc(N(C)C)cc3)s2)cc1
10	CCOC(=O)c1sc(SCC(=O)Nc2ccc(N(C)C)cc2)nc1N

Assay by compound | 6 | 7 | 8 | 9 | 10
miR-21 reporter | 1% | -13% | -39% | -42% | 14%
ALDH1A1 block | ? | ? | -14% | ? | 22µM*
LMNA splice mod | 0% | / | / | -12% | ?
KDM4E inh | -4% | ? | ? | -8% | -6%
Sfp inh | 0% | -4% | -2% | -10% | -4%
G9a inh | -2%[59 µM] | 13µM* | 13µM* | ? | 11µM*

11	CN(C)c1ccc(NC(=O)CSc2nc(N)c(C(=O)Nc3ccc(N(C)C)cc3)s2)cc1
12	O=C(CCn1c(=O)oc2ccc(Cl)cc21)N1CCN(c2ccccc2)CC1
13	Cc1cc(-c2ccccc2)c2c(=O)n(-c3ccccc3)[nH]c2n1
14	O=c1c2c(-c3cccc([N+](=O)[O-])c3)ccnc2[nH]n1-c1ccccc1
15	Cc1ccccc1SCC(=O)OCC(=O)Nc1ccc(N(C)C)cc1

Assay by compound | 11 | 12 | 13 | 14 | 15
miR-21 reporter | 16% | -2% | 5% | -1% | -1%
ALDH1A1 block | 25µM* | / | / | / | ?
LMNA splice mod | 5% | / | / | / | 18%[46 µM]
KDM4E inh | -4% | / | / | / | 1%
Sfp inh | -8% | 11% | -14% | 5% | 11%
G9a inh | ? | 11% | 11µM* | ? | 13µM*

Whole records from above. Order of screens: miR-21 reporter | ALDH1A1 block | LMNA splice mod | KDM4E inh | Sfp inh | G9a inh
CN(C)c1ccc(CNC(=O)c2sc3ncccc3c2-n2cccc2)cc1 as listed: -1% | / | 3%[46 µM] | / | / | 22µM*
CCCCSCc1nc2ccccn2c1Br as listed: -39% | -14% | / | ? | -2% | 13µM*
Nn1c(SCc2nc3ccccn3c2Br)nnc1-c1cccnc1 as listed: 1% | ? | 0% | -4% | 0% | -2%[59 µM]

(continued)
16	CN(C)c1ccc(NC(=O)COC(=O)Cn2nnc3ccccc32)cc1
17	CN(C)c1ccc(NC(=O)COC(=O)CNC(=O)c2cccs2)cc1
18	COc1ccc(CCNC(=O)CCCn2c(=O)c3ccccc3n(Cc3cccc(Cl)c3)c2=O)cc1OC
19	CC(C)(CO)[C@@H](O)C(=O)NCCCO
20	CCn1c(C(C#N)/C(=N\S(=O)(=O)c2cccs2)c2ccccc2)nc2ccccc21 (stereo not drawn)

Assay by compound | 16 | 17 | 18 | 19 | 20
miR-21 reporter | -10% | / | 11% | / | -4%
ALDH1A1 block | -4% | / | / | 2% | 10µM*
LMNA splice mod | -7% | / | / | ? | 5%
KDM4E inh | -1% | / | / | 4% | 15%
Sfp inh | 6% | / | / | 9% | 2%
G9a inh | 40µM* | -10%[12.7 µM] | 11%[59 µM] | 23%[59 µM] | -14%[12.7 µM]

21	CCn1c(-c2cccs2)nc2ccccc21
22	CCCCCCCCCCC(C)=O
23	COC(=O)c1c(NC(=O)CN2CCN(Cc3ccc4c(c3)OCO4)CC2)sc(C)c1C
24	COC(=O)c1ccsc1NC(=O)CN1CCN(Cc2ccc3c(c2)OCO3)CC1
25	COC(=O)c1c(NC(=O)CN2C(=O)c3ccccc3C2=O)sc(Cc2ccc3c(c2)OCO3)c1C

Assay by compound | 21 | 22 | 23 | 24 | 25
miR-21 reporter | -35% | / | 24% | -2% | -5%
ALDH1A1 block | ? | / | 13µM* | 14% | ?
LMNA splice mod | -5% | / | ? | 7% | 8%
KDM4E inh | ? | / | -28% | 5% | -2%
Sfp inh | 6% | 25% | -1% | 1% | 6%
G9a inh | 20%[59 µM] | / | -50%[59 µM] | -3% | 50µM*

26	COC(=O)c1c(NC(=O)Cc2ccccc2)sc(C)c1C
27	COc1ccc(Br)cc1S(=O)(=O)N(CC(=O)N1CCN(C)CC1)c1ccccc1
28	COc1ccc(C(=O)CSc2nc(C)cc(C)c2C(=O)Nc2ccccc2C)cc1
29	CCOc1ccc(C2=CSC3=NCCN23)cc1[N+](=O)[O-]
30	CC1CN2C(c3ccc([N+](=O)[O-])cc3)=CSC2=N1 (stereo not drawn)

Assay by compound | 26 | 27 | 28 | 29 | 30
miR-21 reporter | -8% | -2% | 5% | 0% | -5%
ALDH1A1 block | -14% | / | / | / | /
LMNA splice mod | 3% | / | -19%[46 µM] | / | /
KDM4E inh | -18% | / | / | / | /
Sfp inh | -26% | 8% | / | -10% | 50µM*
G9a inh | -29%[59 µM] | 14% | ? | ? | 14%[0.501 µM]

31	Cn1cnc([N+](=O)[O-])c1SCCO
32	Cn1cnc([N+](=O)[O-])c1Sc1ncccc1N
33	Cc1ccc2sc(-c3ccc(NC(=O)/C=C\C(=O)O)cc3)nc2c1
34	Cc1nc(-c2ccc(NC(=O)/C=C\C(=O)O)cc2)cs1
35	Cc1ccc(-c2csc(N(CCO)CCCn3c(C(F)(F)F)nc4ccccc43)n2)cc1

Assay by compound | 31 | 32 | 33 | 34 | 35
miR-21 reporter | -1% | 0% | 7% | -20% | 15%
ALDH1A1 block | / | -13% | ? | ? | /
LMNA splice mod | / | -22% | / | -2%[46 µM] | /
KDM4E inh | 8% | 2% | ? | 2% | /
Sfp inh | -25% | ? | -12% | 11% | -22%
G9a inh | 22µM* | 3.5µM* | 50µM* | 35µM* | 45µM*

36	COc1ccc(CC(NC(C)=O)C(=O)NC2CCN(c3ncccc3[N+](=O)[O-])CC2)cc1 (stereo not drawn)
37	CC(=O)NC(Cc1ccc(F)cc1)C(=O)NC1CCN(C(=O)NCc2ccccc2)CC1 (stereo not drawn)
38	CC(=O)NC(Cc1ccc(F)cc1)C(=O)NC1CCN(c2nnnn2-c2ccccc2)CC1 (stereo not drawn)
39	COc1cccc(CC(NC(C)=O)C(=O)NC2CCN(c3ncccc3[N+](=O)[O-])CC2)c1 (stereo not drawn)
40	Cc1sc2nc(-c3ccccn3)[nH]c(=O)c2c1-c1ccccc1

Assay by compound | 36 | 37 | 38 | 39 | 40
miR-21 reporter | -1% | 0% | -4% | -4% | -19%
ALDH1A1 block | 6.3µM* | / | 1µM* | 4% | 10%
LMNA splice mod | -18%[46 µM] | / | 8% | 3%[46 µM] | /
KDM4E inh | -6% | / | 1% | 3% | -6%
Sfp inh | -3% | 20% | 15% | 8% | 18µM*
G9a inh | 5% | 5% | 7%[12.7 µM] | -7% | 10µM*

41	Cc1sc2nc(-c3ccncc3)[nH]c(=O)c2c1-c1ccccc1
42	O=c1[nH]c(-c2ccccn2)nc2ccccc12
43	FC(F)(F)c1cnc(Nc2ccc(N3CCOCC3)cc2)c(Cl)c1
44	O=c1c(Cl)c(N2CCOCC2)cnn1-c1ncc(C(F)(F)F)cc1Cl
45	CC(=O)c1sc2nc(-c3cccs3)ccc2c1N

Assay by compound | 41 | 42 | 43 | 44 | 45
miR-21 reporter | -8% | -18% | -14% | -6% | -84%
ALDH1A1 block | ? | ? | -1% | -4% | ?
LMNA splice mod | 4% | ? | 13% | -11%[46 µM] | 0%
KDM4E inh | -21% | -3% | -4% | -1% | ?
Sfp inh | 9% | 79µM* | -2% | 14% | 50µM*
G9a inh | 16%[59 µM] | 19% | 22µM* | -23% | 1.6µM*

46	CC(=O)NC1C(=O)SC1(C)C (stereo not drawn)
47	COc1ccc(/C=C2\N=C3CCCCCN3C2=O)cc1OC
48	COc1cc(/C=C2\N=C3CCCCCN3C2=O)ccc1O
49	O=C1/C(=C\c2ccc(O)c(O)c2)N=C2CCCCCN12

Assay by compound | 46 | 47 | 48 | 49
miR-21 reporter | -6% | -49% | -45% | -60%
ALDH1A1 block | ? | 14µM* | ? | /
LMNA splice mod | 0% | 9% | 0% | /
KDM4E inh | ? | 5% | -9% | 13µM*
Sfp inh | ? | 11% | 9% | 56µM*
G9a inh | 28µM* | 22%[2.33 µM] | ? | 28µM*
